Test results taken from ChEMBL document CHEMBL1129803, “Novel phenyl nitrogen mustard and half-mustard derivatives of distamycin A” (1997).
≈ marks a conversion by molar mass, not a printed value. Where “and” joins values, the source holds several entries; their conditions need not be identical. Equal entries are not always repeated.

What was measured:
L1210 [1] = assay: Compound was tested in vitro for cytotoxicity after 48 hr of continuouse exposure against L1210 murine leukemia cells
[2] = Hydrolysis in acetone/water (50:50) at a pH of 8.0,T =66 degree Centigrade; conditions: buffer, pH 8
[3] = Alkylation of 4-(4-nitrobenzyl)pyridine (NBP) by the compound at a temperature of 66 degree Centigrade
L1210 [4] = assay: Compound was tested in vivo for cytotoxicity against L1210 murine leukemia cells in mice after intravenous administration
[5] = Hydrolysis in acetone/water (50:50) at a pH of 8.0, T=66 degree Centigrade; conditions: buffer, pH 8
L1210 [6] = assay: Compound was tested in vivo for cytotoxicity against L1210 murine leukemia cells in mice after intravenous administration and is expressed as optimal non-toxic dose

Structure (SMILES)	IC50 (L1210 [1]) [µg/mL]	Khydrol [2] [s⁻¹]	K alkyl [3]	T/C (L1210 [4]) [%]	Khydrol [5] [s⁻¹]	OD (L1210 [6]) [mg/kg]
Cn1cc(NC(=O)c2cc(NC(=O)c3cc(NC(=O)c4ccc(NCCCl)cc4)cn3C)cn2C)cc1C(=O)NCCC(=N)N	0.45 (≈ 0.709 µM)	–	–	–	–	–
CCN(CCCl)c1ccc(C(=O)Nc2cc(C(=O)Nc3cc(C(=O)Nc4cc(C(=O)NCCC(=N)N)n(C)c4)n(C)c3)n(C)c2)cc1	0.042 (≈ 0.0633 µM)	0.00032	0.00055 s⁻¹	133	–	–
Cn1cc(NC(=O)c2cc(NC(=O)c3cc(NC(=O)c4ccc(N(CCO)CCO)cc4)cn3C)cn2C)cc1C(=O)NCCC(=N)N	> 10	–	–	–	–	–
Cc1cc(C(=O)Nc2cc(C(=O)Nc3cc(C(=O)Nc4cc(C(=O)NCCC(=N)N)n(C)c4)n(C)c3)n(C)c2)cc(C)c1N(CCCl)CCCl	0.228 (≈ 0.314 µM)	0.0028	–	171	–	–
Cn1cc(NC(=O)c2cc(NC(=O)c3cc(NC(=O)c4ccc(N(CCCl)CCCl)cc4)cn3C)cn2C)cc1C(=O)NCCC(=N)N	0.208 (≈ 0.298 µM)	7.4e-05	0.00055 s⁻¹ and 0.00062 s⁻¹	118	3.8e-05	3.13
Cn1cc(NC(=O)c2cc(NC(=O)c3cc(NC(=O)/C=C/c4ccc(N(CCCl)CCCl)cc4)cn3C)cn2C)cc1C(=O)NCCC(=N)N	0.0072 (≈ 0.00995 µM)	0.00029	0.0013 s⁻¹	–	–	–
CCN(CCCl)c1ccc(C(=O)Nc2cc(C(=O)Nc3cc(C(=O)Nc4cc(C(=O)NCCC(=N)N)n(C)c4)n(C)c3)n(C)c2)cc1C	0.0555 (≈ 0.082 µM)	–	–	150	–	–
Cn1cc(NC(=O)c2cc(NC(=O)c3cc(NC(=O)c4ccc(N(CCBr)CCBr)cc4)cn3C)cn2C)cc1C(=O)NCCC(=N)N	0.0006 (≈ 0.000763 µM)	0.00064	0.0062 s⁻¹	169	–	–
CCCN(CCCl)c1ccc(C(=O)Nc2cc(C(=O)Nc3cc(C(=O)Nc4cc(C(=O)NCCC(=N)N)n(C)c4)n(C)c3)n(C)c2)cc1	0.739 (≈ 1.09 µM)	–	–	112	–	–
Cc1cc(C(=O)Nc2cc(C(=O)Nc3cc(C(=O)Nc4cc(C(=O)NCCC(=N)N)n(C)c4)n(C)c3)n(C)c2)ccc1N(CCCl)CCCl	0.0111 (≈ 0.0156 µM)	0.0014	0.014 s⁻¹	175	–	–
Cn1cc(NC(=O)c2cc(NC(=O)c3cc(NC(=O)c4ccc(N(CCCl)CCCl)c(F)c4)cn3C)cn2C)cc1C(=O)NCCC(=N)N	0.223 (≈ 0.311 µM)	5.6e-05	0.00058 s⁻¹	–	–	–
CCN(CCCl)c1ccc(/C=C/C(=O)Nc2cc(C(=O)Nc3cc(C(=O)Nc4cc(C(=O)NCCC(=N)N)n(C)c4)n(C)c3)n(C)c2)cc1	0.0029 (≈ 0.00421 µM)	–	–	207	–	–
Cn1cc(NC(=O)c2cc(NC(=O)c3cc(NC(=O)c4ccc(N(CCF)CCF)cc4)cn3C)cn2C)cc1C(=O)NCCC(=N)N	> 10	–	–	–	–	–
